Source: patent US20150133512A1, “N-ARYLTRIAZOLE COMPOUNDS AS LPAR ANTAGONISTS” (Hoffmann-La Roche Inc,, priority 2012, published 2015)

Amino acid sequences for entries named in this document (tags omitted). A change or cut given only in a name is not applied to a line headed by its entry.
UniProt Q92633: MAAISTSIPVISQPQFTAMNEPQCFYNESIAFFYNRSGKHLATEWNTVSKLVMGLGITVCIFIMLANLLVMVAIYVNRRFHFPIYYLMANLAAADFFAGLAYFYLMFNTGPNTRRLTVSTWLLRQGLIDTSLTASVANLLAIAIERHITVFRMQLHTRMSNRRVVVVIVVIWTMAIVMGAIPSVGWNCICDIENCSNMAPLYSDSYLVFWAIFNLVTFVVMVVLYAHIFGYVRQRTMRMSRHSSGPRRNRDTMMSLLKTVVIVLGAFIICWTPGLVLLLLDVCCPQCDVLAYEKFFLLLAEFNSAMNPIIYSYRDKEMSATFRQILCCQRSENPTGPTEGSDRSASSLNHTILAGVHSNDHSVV

Molecular target: human recombinant LPA1 Lysophospholipid receptor (Homo sapiens, UniProt Q92633)
Assay: Calcium flux assay using FLIPR, LPA1 antagonist activity
Assay type: cell-based
Settings: ChemiScreen Calcium-optimized stable cell line; antagonist mode, inhibition of agonist-induced calcium flux
Method: Calcium Flux Assay Using Fluorometric Imaging Plate Reader (FLIPR)
Cell Culture Conditions: The ChemiScreen Calcium-optimized stable cell line containing the human recombinant LPA1 Lysophospholipid receptor was purchased from Chemicon International, Inc./Millipore. The cells were cultured in DMEM-high glucose supplemented with 10% fetal bovine serum, 2 mM glutamine, 100 U/mL penicillin/100 μg/mL streptomycin, 1× non-essential amino acids, 10 mM HEPES and 0.25 mg/mL Geneticin. Cells were harvested with trypsin-EDTA and counted using ViaCount reagent. The cell suspension volume was adjusted to 2.0×10^5 cells/mL with complete growth media. […]
After incubation, both the cell and “assay” plates were brought to the FLIPR and 20 μL of the diluted compounds were transferred to the cell plates by the FLIPR. Compound addition was monitored by FLIPR to detect any agonist activity of the compounds. […] During the assay, fluorescence readings were taken simultaneously from all 384 wells of the cell plate every 1.5 seconds. Five readings were taken to establish a stable baseline, then 20 μL of sample was rapidly (30 μL/sec) and simultaneously added to each well of the cell plate. The fluorescence was continuously monitored before, during and after sample addition for a total elapsed time of 100 seconds. Responses (increase in peak fluorescence) in each well following agonist addition was determined. […]

- pIC50: 7.46
SMILES: Cc1nnn(-c2ccc(-c3ccc(C4(C(=O)O)CC4)cc3)cc2)c1NC(=O)O[C@H](C)c1ccccc1F [Example 5, 1-(4′-{5-[(R)-1-(2-Fluoro-phenyl)-ethoxycarbonylamino]-4-methyl-[1,2,3]triazol-1-yl}-biphenyl-4-yl)-cyclopropanecarboxylic acid]

pIC50: −log10 of the molar value.
